The record followed here is PubChem BioAssay AID720507 (National Center for Advancing Translational Sciences (NCATS), 2013).

Amino acid sequences for entries named in this document (tags omitted).
UniProt P14416, whole entry, looked up: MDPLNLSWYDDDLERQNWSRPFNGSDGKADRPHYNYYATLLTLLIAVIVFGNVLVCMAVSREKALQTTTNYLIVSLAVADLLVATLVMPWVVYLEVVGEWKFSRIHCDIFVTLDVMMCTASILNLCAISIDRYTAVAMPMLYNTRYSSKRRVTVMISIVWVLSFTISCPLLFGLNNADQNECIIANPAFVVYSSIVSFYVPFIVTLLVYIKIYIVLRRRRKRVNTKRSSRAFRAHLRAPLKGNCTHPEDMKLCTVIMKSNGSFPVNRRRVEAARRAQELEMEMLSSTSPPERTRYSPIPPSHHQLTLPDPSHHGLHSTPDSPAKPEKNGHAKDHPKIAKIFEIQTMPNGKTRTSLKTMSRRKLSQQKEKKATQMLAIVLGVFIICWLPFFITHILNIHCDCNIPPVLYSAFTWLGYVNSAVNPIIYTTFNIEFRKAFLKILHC

Only a part is listed here, and it is no random draw. Results filed as inconclusive are left out. Calls of active or inactive are those of the source. Calls come from the whole dose curve; as a rule, active = well fitted activation curve with a large enough effect; inconclusive = small, poorly fitted or top-dose-only effect; inactive = flat fitted curve, though single readings scatter.

For the assay, the target named is D(2) dopamine receptor (Homo sapiens) (UniProt P14416). The assay is described as follows: qHTS of D3 Dopamine Receptor Agonist: D2 Dopamine Receptor B-arrestin Agonist Counterscreen. Note: % of control where 0% means no effect; nearly all actives have a fitted effect of over 70% in size. The settings on record: DiscoveRx PathHunter D2 beta-arrestin, luminescence, 90 min, percent relative to full dopamine signal; at 76.9 µM (top of the series). The text has this: D3 DARs represent a very important target for the treatment of several neuropsychiatric disorders. Indeed, one of the most promising therapeutic applications for the D3 DAR is in the area of addiction and related disorders. […] These findings have been observed with a number of addictive substances including cocaine, amphetamine, nicotine, and alcohol. […] Increased D3 DAR activity can thus lead to neuroprotective and neurorestorative actions in the CNS. […] This assay is used to profile the activity of the identified D3 dopamine receptor agonist against the D2 dopamine receptor. Greater than 10% of the maximum dopamine agonist response is desired for this assay. NIH Molecular Libraries Probe Production Centers Network [MLPCN] NIH Chemical Genomics Center [NCGC] MLPCN Grant: NS064831 Assay Submitter (PI): David Sibley
DiscoveRx D2 cells were thawed from frozen stock and seeded at 2,100 cells/ 3 uL/well media (DiscoveRx Plating Reagent 2) with MultiDrop Combi dispenser (Thermo Scientific, Logan, UT) onto white tissue culture treated 1536-well Aurora plates (Brooks Automation, Chelmsford, MA) and allowed to attach overnight at 37 deg C, 5% CO2. […] The plates were incubated at ambient temperature for 1 hour and then the luminescent signal was read on ViewLux plate reader (PerkinElmer, Waltham, MA).
(Quantitative high-throughput screening tests each substance at several concentrations.)
Take `O=C(NCC1(N2CCCCC2)CCCCC1)c1ccc(Cl)s1`: the activation was inactive: -2.72%.
